Test results: patent US20030148396A1 (CITY OF NAGOYA, published 2003)

The chains behind the UniProt entries cited, without tags or fusion partners.
UniProt Q04206, whole entry: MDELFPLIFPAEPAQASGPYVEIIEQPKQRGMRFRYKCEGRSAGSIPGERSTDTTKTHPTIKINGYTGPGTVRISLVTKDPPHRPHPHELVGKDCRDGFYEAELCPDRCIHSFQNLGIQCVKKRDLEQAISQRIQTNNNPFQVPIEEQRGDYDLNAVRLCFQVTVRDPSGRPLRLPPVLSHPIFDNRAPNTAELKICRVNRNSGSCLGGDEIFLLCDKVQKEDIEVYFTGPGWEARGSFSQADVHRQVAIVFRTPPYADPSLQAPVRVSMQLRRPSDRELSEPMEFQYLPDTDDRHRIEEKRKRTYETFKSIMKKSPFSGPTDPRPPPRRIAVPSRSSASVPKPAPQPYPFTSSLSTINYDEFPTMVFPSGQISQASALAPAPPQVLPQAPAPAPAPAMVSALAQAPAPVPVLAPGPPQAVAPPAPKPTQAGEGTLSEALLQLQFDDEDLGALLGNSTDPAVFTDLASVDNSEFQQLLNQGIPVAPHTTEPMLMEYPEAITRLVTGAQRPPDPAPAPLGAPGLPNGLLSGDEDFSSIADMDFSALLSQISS

Target: T1, 35S-methionine-labeled p65 (UniProt Q04206, 35S-methionine label)
T1 construct: the two-hybrid bait is human p65; also called in vitro synthesized p65 protein; RelA
Test: GST pull-down on glutathione-sepharose beads, autoradiography of 35S-labeled p65
Experimental: For in vitro protein-protein interaction studies, an equal amount of the in vitro-translated ³⁵S-methionine-labeled p65 was incubated with 5 mg of purified GST-RAI fusion proteins or GST alone (as a negative control) that were bound to glutathione-sepharose beads at 25° C. for 1 h in buffer A (250 ml).
The beads were washed by resuspension and centrifugation five times with 1 ml of ice-cold binding buffer A containing 0.1% NP-40. Bound proteins were eluted with an equal volume of SDS loading buffer, boiled for 3 min, dissolved into 5-20% SDS-PAGE, and visualized by autoradiography.

B1: GST alone (negative control) (other, UniProt P08515 1-218, looked up)
chain: MSPILGYWKIKGLVQPTRLLLEYLEEKYEEHLYERDEGDKWRNKKFELGLEFPNLPYYIDGDVKLTQSMAIIRYIADKHNMLGGCPKERAEISMLEGAVLDIRYGVSRIAYSKDFETLKVDFLSKLPEMLKMFEDRLCHKTYLNGDHVTHPDFMLYDALDVVLYMDPMCLDAFPKLVCFKKRIEAIPQIDKYLKSSKYIAWPLQGWQATFGGGDHPPK
notes: also called control GST protein
  binding result: no binding
